Structures can show the parent of a compound that is named as a salt.
These compounds were tested on RTT spheroids (assay: FLIPR spontaneous calcium oscillation assay of iPSC-derived cortical brain spheroids (SMART library screen)). Conditions: 298-compound SMART library on WT and RTT matured spheroids.
Assay type: cell-based, human
Source text: In one embodiment, the present disclosure provides human induced pluripotent stem cells iPScs that are subsequently differentiated into human cortical neurons comprising neurons and astrocytes in approximately a 50:50 ratio. The ratio can be adjusted on a case by case basis depending on the particular disease of interest from 1 to 99% either neurons or astrocytes. The 3D spheroids are comprised of approximately 50:50 neurons to astrocytes ratio +1-10%. The methods of differentiating and forming 3 dimensional spheroids and functional testing with FLIPR optical techniques is described in copending patent application No. 62/532667. In the examples in this invention we use a disease model cell line which are known to carry genes responsible for Rett syndrome.
In the present disclosure both Wild Type (WT) and Rett Disease (RTT) cortical brain human tissue spheroids were prepared for the purpose of high throughput screening to identify therapeutic compounds that can modulate the brain activity in an attempt to revert or rescue the disease state back to near normal activity or homeostasis. For example, the cell lines employed (control or “WT” and disease “RTT”) may be from a family without and with the Rett disease phenotype.
The method disclosed herein may, in one embodiment, include manufacturing 3D spheroids in 384 well round bottom microtiter plates, see, e.g. U.S. patent application No. 62/532,667, the disclosure of which is incorporated herein. […] In the present disclosure, 6 to 14 weeks of maturation is a maturation range for testing, e.g., 8 to 10 weeks of maturation.
The oscillations being measured are from calcium flux moving into and out of the cells at ambient conditions. The oscillations are spontaneous and not generated by an external source. The measurements are conducted in real time and the data captured by using a technique called FLIPR that is well known in the prior art. […] When analyzing the data, it is important to understand that multiple factors contribute to the signal being recorded by the FLIPR software. Therefore, in the present disclosure 7 parameters are recorded to determine if the data generated from the spheroid is meaningful. The parameters measured are, e.g., peak count, peak width, average peak spacing, peak spacing standard deviation, peak decay time, peak rise time, and/or peak amplitude.
In the present disclosure, the SMART library that contained 298 compounds was used on both WT and RTT matured spheroids over several weeks and the FLIPR data collected and analyzed for potential therapeutic efficacy. The SMART (Selected Molecular Agents for Rett Therapy) library of compounds is well vetted by modern day bioinformatics methods, tightly focused on Rett syndrome and its biological causes. The library is currently housed at the University of Illinois-Chicago. […] With the goals in mind to save both time and resources and accelerate drug discovery for Rett syndrome, the compounds in the SMART library are readily available to investigators working on Rett syndrome research.

Compound | outcome of the SMART library screen (multivariant analysis)
Cl.Cl.OCCOCCN1CCN(C(c2ccccc2)c2ccc(Cl)cc2)CC1 (centres unmarked) [Hydroxyzine Dichloride] | therapeutics of interest
Fc1ccc([C@@H]2CCNC[C@H]2COc2ccc3c(c2)OCO3)cc1 [Paroxetine] | therapeutics of interest
C#CCN(C)[C@H](C)Cc1ccccc1 [Selegiline Hydrochloride] | therapeutics of interest
CCCC(CCC)C(=O)O [Valproate DPA] | therapeutics of interest
Pirlindole Mesylate | therapeutics of interest
